Source: paper PMC8251916 (Chemistry (Weinheim an Der Bergstrasse, Germany), 2021)

Tests used:
[1] = tested on: telo23-K+ (hybrid type human telomeric G4); test: UV-Vis titration, telo23-K+; type: binding; conditions: ratio of Ka
Procedure: To obtain quantitative information on the binding of NDI 1 and PDI 3 to the previously assessed G4 and duplex DNA structures, ultraviolet‐visible absorbance spectroscopy (UV‐Vis) titrations were conducted (Figure 3 and S10). In all cases the ligand concentration was kept constant at 10 μM, whilst oligonucleotide was titrated in up to a final concentration of 30 μM. The observed binding isotherms were fitted to an independent/equivalent sites binding model, and binding constants (K a) were determined. […]
telo22-Na+ (antiparallel basket […]
telo23 and telo22 were selected as models for the human telomeric G-quadruplex under K+ and Na+ conditions, respectively, as they have been the subject of detailed structural studies,[S8,S9] […]
used. telo23 forms primarily a (3+1) hybrid structure under K+ conditions,[S8] whilst telo22 forms a single antiparallel fold.[S9]
The oligonucleotides were at a concentration of 5 µM and the buffers used were either potassium phosphate (100 mM, pH 7.4) for telo23-K+, EBR1-K+ and ds26-K+ or sodium phosphate (100 mM, pH 7.4) for telo22-Na+. The reported spectrum for each sample represents the average of 3 scans and is baseline corrected for the buffer used. Data processing was carried out using Prism 7 (GraphPad Software) with a 4-point second order smoothing polynomial applied to all spectra. Observed ellipticities were converted to molar ellipticity.
UV-Visible Absorbance Spectroscopy
Absorbance spectra were recorded on a Cary 60 UV-Visible (UV-Vis) spectrophotometer using a room-light immune fibre optic probe with 10 mm path length. The UV-Vis spectra were […]
were corrected for background and buffer absorbance. The oligonucleotides and buffer conditions were the same as employed in the CD experiments.
In the titrations, the concentration of ligand was fixed at 10 µM in an initial volume of 500 µL.
Aliquots of oligonucleotide were added using a microsyringe from a 100 µM stock solution in appropriate buffer containing also 10 µM ligand to maintain constant ligand concentration. […]

T. brucei [2] = test: Trypanocidal activity, alamarBlue assay; type: cell-based; conditions: selectivity index from EC50 values
Procedure: (§1) Doxorubicin, suramin and miltefosine were used as control compounds.[ ^6b , ^9 ] After incubation with varied concentrations of the compounds for 72 h, cell viability was measured using either an alamarBlue™ assay (for MRC5, HeLa and T. brucei) or MTT assay (for L. major). Absolute EC50 values and selectivity indexes were then calculated from dose‐response curves (Table 2 and S14). […]
(§2) Cell culture reagents were purchased from Thermo Fisher Scientific (Waltham, MA, USA) and used as-is. The Dulbecco’s Minimal Essential Medium (DMEM) formulation contained either high glucose (4.5 g/L, catalogue number: 10569) or low glucose (1 g/L, catalogue number:
(§3) 10567). RPMI-1640 was provided without sodium pyruvate and with L-glutamine (catalogue number: 11875). Phosphate Buffered Saline (PBS) contained NaCl (9 g/L), KH2PO4 (144 mg/L) and Na2HPO4-7.H2O (795 mg/L, catalogue number: 10010049). TrypLE Express™ was provided with EDTA (458 mg/L) and without Phenol Red (catalogue number: 12604021).
MRC-5 cells (human lung fibroblasts) were grown in monolayer (37 °C, 5 % CO2 and 100 % humidity) in DMEM medium (1 g/L glucose), supplemented with 10% heat-inactivated Fetal Bovine Serum (hiFBS), 2 mM L-glutamine, 100 U / mL penicillin and […]
streptomycin. […]
(§4) Cells were cultured according to ATCC recommendations and were used for the experiments while in the exponential growth phase. […]
hiFBS. Parasites were split every other day and maintained in their experimental growth phase (below 2 million parasites per mL).
(§5) Cytotoxicity was measured through the alamarBlue® assay (Thermo Fisher Scientific).[S6,S13] Briefly, 5×10^3 MRC-5 or HeLa cells were seeded in 96-wells plates (100 µL / well) in the presence of increasing concentrations of compound. […] The plate was incubated at 37 °C for an extra hour and then analysed by fluorescence with an Infinite F200 plate reader (TECAN Austria, GmbH). […] The results are expressed as the concentration of compound that reduces

L. major = test: Leishmaniacidal activity, MTT assay; type: cell-based; conditions: selectivity index from EC50 values
Procedure: Doxorubicin, suramin and miltefosine were used as control compounds.[ ^6b , ^9 ] After incubation with varied concentrations of the compounds for 72 h, cell viability was measured using either an alamarBlue™ assay (for MRC5, HeLa and T. brucei) or MTT assay (for L. major). Absolute EC50 values and selectivity indexes were then calculated from dose‐response curves (Table 2 and S14).
Invitrogen). L. major promastigotes (MHOM/IL/80/Friedlin) were cultured at 28 °C, 5 % CO2 in modified RPMI-1640 medium (Thermo Fisher Scientific, Waltham, MA, USA) with 10% hiFBS. Parasites were split every other day and maintained in their experimental growth phase (below 2 million parasites per mL). […]
The results are expressed as the concentration of compound that reduces cell growth by 50 % versus untreated control cells (EC50) using GraphPad Prism 7 (GraphPad Software) to fit the data to a sigmoidal curve. […]
The leishmaniacidal activity of the compounds on promastigotes L. major (MHOM/IL/80/Friedlin) was carried out as previously described.[S14] […] Cell proliferation was determined using an MTT-based assay (Sigma-Aldrich). […] The plate was then incubated at 37°C for 4-16 hrs and analysed using an Infinite F200 plate reader (TECAN Austria, GmbH). The absorbance was measured […]
at a wavelength of 540 nm and the EC50 was calculated as described above. […]

[3] = tested on: HeLa cervical carcinoma cells; test: Cytotoxicity, alamarBlue assay, HeLa; type: cell-based, human; conditions: selectivity index from EC50 values
Procedure: as §1, §2, §3
MRC-5 cells (human lung fibroblasts) were grown in monolayer (37 °C, 5 % CO2 and 100 % humidity) in DMEM medium (1 g/L glucose), supplemented with 10% heat-inactivated Fetal Bovine Serum (hiFBS), 2 mM L-glutamine, 100 U / mL penicillin and […] streptomycin. HeLa (Human cervical carcinoma cell line) cells were maintained at 37 °C and 5 % CO2 in high glucose DMEM (4.5 g / L) supplemented with 10% hiFBS, 100 U / ml penicillin, […] streptomycin, 2 mM L-glutamine and non-essential aminoacids (1X).
as §4, §5

T. brucei [4] = tested on: T. brucei; design: method as in earlier work; conditions: typical G4 interactive compounds; ref 6b; cited from earlier work

SMILES	selectivity for telo23-K+ G4 over EBR1-K+ G4 [1] [fold]	selectivity for telo23-K+ G4 over ds26-K+ duplex [1] [fold]	selectivity for telo23-K+ G4 over telo22-Na+ G4 [1] [fold]	SI (MRC5/T. brucei) (T. brucei [2])	SI (MRC5/ L. major) (L. major)	SI (MRC5/HeLa) [3]	selectivity index (SI) T. brucei over MRC5 (T. brucei [4])
CN1CCN(CCCN2C(=O)c3ccc4c5c(ccc(c35)C2=O)C(=O)N(CCCN2CCN(C)CC2)C4=O)CC1 [Compound 1]	3	6	100	6.4	8.3	10	
CN1CCN(CCCNC(=O)c2ccc(Oc3ccc(C(C)(C)c4ccc(Oc5ccc(C(=O)NCCCN6CCN(C)CC6)c(C(=O)NCCCN6CCN(C)CC6)c5)cc4)cc3)cc2C(=O)NCCCN2CCN(C)CC2)CC1 [Compound 11]				21	3.2	4.2	
CN1CCN(CCCN2C(=O)c3ccc(Oc4ccc(C(C)(C)c5ccc(Oc6ccc7c(c6)C(=O)N(CCCN6CCN(C)CC6)C7=O)cc5)cc4)cc3C2=O)CC1 [Compound 9]				2.7		3.0	
NCCOc1cc(C(=O)Nc2cc(OCCN)c3ccccc3n2)nc(C(=O)Nc2cc(OCCN)c3ccccc3n2)c1 [Pyridostatin, reference compound]							0.7
